Among the data in ChEMBL document CHEMBL1124222 (J Med Chem, 1988) are Bmax (pM (mg of protein)-1) values, retold here.

Chains of the proteins cited; added tags and fusions are not shown.
UniProt P61169, whole entry: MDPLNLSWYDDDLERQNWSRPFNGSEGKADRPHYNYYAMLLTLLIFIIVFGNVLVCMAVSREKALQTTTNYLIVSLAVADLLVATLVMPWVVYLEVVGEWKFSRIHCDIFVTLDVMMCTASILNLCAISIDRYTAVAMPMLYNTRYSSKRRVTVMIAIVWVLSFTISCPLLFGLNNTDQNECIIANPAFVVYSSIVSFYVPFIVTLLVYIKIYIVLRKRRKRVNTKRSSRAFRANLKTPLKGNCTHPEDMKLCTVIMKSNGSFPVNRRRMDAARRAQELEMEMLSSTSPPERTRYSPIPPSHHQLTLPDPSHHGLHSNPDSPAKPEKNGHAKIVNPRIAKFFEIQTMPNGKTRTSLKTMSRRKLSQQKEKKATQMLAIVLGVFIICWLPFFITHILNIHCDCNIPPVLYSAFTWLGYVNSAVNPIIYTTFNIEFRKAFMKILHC

The target of this assay is D(2) dopamine receptor (Rattus norvegicus) (UniProt P61169). The experiment in a line: Affinity constant of compound was evaluated in rat striatum tissue preparation. In kind it is tissue-based.

`CCN1CCCC1CNC(=O)c1c(OC)ccc(I)c1O` (stereo unspecified) had a Bmax (pM (mg of protein)-1) of 0.48.
